Key:
Test in all cases: Cross-resistance testing, His-tagged column-purified PDS (Table 2A)
Type in all cases: biochemical
[1] = biological target: hydrilla PDS Arg^304 → Histidine, His-tagged (Hydrilla verticillata, UniProt Q66PY0, R304H); conditions: read-out: I50, Histidine at 304
Source text: (§1) In further cross-resistance testing similar to that described above, an alternative production and purification protocol was used in the preparation of the mutant PDS proteins, and the activity of the proteins was again tested using the same testing protocol. The alternative approach utilized His-tagging and column purification of the mutant PDS protins. The results are shown in. Table 2A below.
(§2) The plasmid pHy4ATG5 was made by cloning the Phytoene Desaturase (pds) gene from Hydrilla verticillata, including 323 by upstream of the beginning of the putative mature protein, into the vector TOPO4 (Invitrogen, Carlsbad, Calif.): The 1-323 by region contained three potential start codons (ATG)(positions 1, 114 and 225 bp) in frame with pds. In order to express pds in bacteria, deletion clones were made for each of the three potential start codons with and without ATG. Only the results for possible origins of translation 1 and 225 by (named ORF and 3ORF) are reported here. pds was PCR amplified and subcloned into TOPO4 using pHy4ATG5 as template and the reverse primer RPDS—1849 (5′[…] 3′). The forward primers used were ORF (5′ […] 3′), ORF-ATG (5′ […] 3′), 3_ORF (5′[…] 3′) and 3_ORF-ATG (5′ […] 3′). The resulting plasmids were named pORF, pORF-ATG (minus ATG codon), p3ORF and p3ORF-ATG. The pds-containing EcoRI-fragments of these plasmids were subcloned into the EcoRI site of pRSETb vector (Invitrogen) for Histidine tagging and bacterial expression. The resulting constructs were pHy4SET, pHy4SET-ATG (minus ATG), p3ORFSET and p3ORFSET-ATG.
(§3) Plasmid p3ORF-ATG was later mutagenized at the amino acid 304 of pds to replace the amino acid Arginine (Arg) by Histidine (His), Threonine (Thr), Serine (Ser), or Cysteine (Cys), using the QuickChange™ Site-Directed Mutagenesis Kit of Stratagene (La Jolla, Calif.). Primers used to replace Arg by His were Hyd-His-For (5′[…] 3′) and Hyd-His-Rev (5′ […] 3′); to replace Arg by Thr we used primers Hyd-Thr-For (5′[…] 3′) and Hyd-Thr-Rev (5′[…] 3′); to replace Arg by Ser we used Hyd-Ser-For (5′[…] 3′) and Hyd-Ser-Rev (5′[…] 3′); and Arg was replaced by Cys using Hyd-Cys-For (5′[…] 3′) and Hyd-Cys-Rev (5′[…] 3′). Resulting plasmids were named: p3ORFHisSet-ATG, p3ORFThrSet-ATG, p3ORFSerSet-ATG and p3ORFCysSet-ATG.
(§4) All pRSET derived constructs were transformed into BL21(DE3)pLysS cells (Invitrogen), induced with IPTG for protein expression, and the His tag overproduced proteins analyzed by Western blot using Anti-HisG antibody (Invitrogen, cat. #R940-25).
(§5) When working with His-tagged PDS proteins expressed as described in Example 4, the purified protein used for testing was prepared as follows. […]

Protein sequences, listed by entry. Tags and fused reporters are not part of them. Residues count along the entry.
UniProt Q66PY0, 77-580 R304H: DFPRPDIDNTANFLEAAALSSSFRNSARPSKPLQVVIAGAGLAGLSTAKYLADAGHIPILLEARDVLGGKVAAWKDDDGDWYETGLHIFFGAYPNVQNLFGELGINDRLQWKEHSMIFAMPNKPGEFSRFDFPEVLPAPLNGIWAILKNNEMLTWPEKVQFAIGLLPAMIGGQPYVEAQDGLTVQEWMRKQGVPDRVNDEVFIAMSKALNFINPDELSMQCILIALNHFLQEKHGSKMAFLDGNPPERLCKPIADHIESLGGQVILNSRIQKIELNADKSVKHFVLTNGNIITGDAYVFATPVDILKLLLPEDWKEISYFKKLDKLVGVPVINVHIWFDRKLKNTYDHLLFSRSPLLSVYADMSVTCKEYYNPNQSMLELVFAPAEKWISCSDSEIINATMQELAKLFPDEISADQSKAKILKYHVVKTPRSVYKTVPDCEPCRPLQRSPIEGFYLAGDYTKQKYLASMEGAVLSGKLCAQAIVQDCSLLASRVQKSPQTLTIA
UniProt Q66PY0, 77-580 R304S: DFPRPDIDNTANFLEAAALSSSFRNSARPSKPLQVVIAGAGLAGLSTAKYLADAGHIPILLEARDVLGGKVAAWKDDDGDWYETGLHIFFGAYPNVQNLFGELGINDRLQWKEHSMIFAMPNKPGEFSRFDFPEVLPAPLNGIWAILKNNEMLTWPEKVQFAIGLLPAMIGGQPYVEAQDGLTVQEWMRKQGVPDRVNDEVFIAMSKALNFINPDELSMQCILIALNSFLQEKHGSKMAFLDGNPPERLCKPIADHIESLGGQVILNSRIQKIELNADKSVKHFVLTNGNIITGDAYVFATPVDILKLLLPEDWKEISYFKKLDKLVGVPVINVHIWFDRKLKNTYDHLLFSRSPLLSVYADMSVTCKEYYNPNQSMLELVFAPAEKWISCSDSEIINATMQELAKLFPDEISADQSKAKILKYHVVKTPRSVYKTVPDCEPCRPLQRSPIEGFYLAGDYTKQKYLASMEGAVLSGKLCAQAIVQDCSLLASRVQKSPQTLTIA
UniProt Q66PY0, 77-580 R304T: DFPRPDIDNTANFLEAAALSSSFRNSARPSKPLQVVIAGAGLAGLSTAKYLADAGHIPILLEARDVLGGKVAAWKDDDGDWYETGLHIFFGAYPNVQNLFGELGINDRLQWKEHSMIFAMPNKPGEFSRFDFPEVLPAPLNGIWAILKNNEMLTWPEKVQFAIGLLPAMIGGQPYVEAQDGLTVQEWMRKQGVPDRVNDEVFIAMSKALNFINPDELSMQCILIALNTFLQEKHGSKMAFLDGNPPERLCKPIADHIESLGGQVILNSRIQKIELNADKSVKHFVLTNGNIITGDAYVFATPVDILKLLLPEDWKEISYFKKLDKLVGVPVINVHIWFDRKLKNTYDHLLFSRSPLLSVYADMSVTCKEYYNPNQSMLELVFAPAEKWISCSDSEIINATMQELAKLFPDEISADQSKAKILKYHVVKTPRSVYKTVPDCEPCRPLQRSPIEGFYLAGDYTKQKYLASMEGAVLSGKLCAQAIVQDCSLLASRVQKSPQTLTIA
UniProt Q66PY0, 77-580 R304C: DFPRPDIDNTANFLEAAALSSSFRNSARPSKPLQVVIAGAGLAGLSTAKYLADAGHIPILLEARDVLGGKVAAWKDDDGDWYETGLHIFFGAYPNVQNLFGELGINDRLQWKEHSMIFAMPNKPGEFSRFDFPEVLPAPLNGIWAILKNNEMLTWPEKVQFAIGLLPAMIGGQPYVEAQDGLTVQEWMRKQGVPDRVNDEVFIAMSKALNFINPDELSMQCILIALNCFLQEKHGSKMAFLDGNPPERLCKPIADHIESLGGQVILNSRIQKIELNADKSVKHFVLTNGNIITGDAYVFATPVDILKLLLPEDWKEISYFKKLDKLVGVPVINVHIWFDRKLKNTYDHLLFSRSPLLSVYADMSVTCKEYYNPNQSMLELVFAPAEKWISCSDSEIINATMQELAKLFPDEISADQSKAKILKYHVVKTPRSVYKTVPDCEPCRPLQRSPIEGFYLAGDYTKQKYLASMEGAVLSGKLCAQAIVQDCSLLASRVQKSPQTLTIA

[2] = biological target: hydrilla PDS Arg^304 → Serine, His-tagged (Hydrilla verticillata, UniProt Q66PY0, R304S); conditions: read-out: I50, Serine at 304
Source text: as §1, §2, §3, §4, §5

[3] = biological target: hydrilla PDS Arg^304 → Threonine, His-tagged (Hydrilla verticillata, UniProt Q66PY0, R304T); conditions: read-out: I50, Threonine at 304
Source text: as §1, §2, §3, §4, §5

[4] = biological target: hydrilla PDS Arg^304 → Cysteine, His-tagged (Hydrilla verticillata, UniProt Q66PY0, R304C); conditions: read-out: I50, Cysteine at 304
Source text: as §1, §2, §3, §4, §5

For Fluridone, the IC50 [1] was 1.47 mM, the IC50 [2] was 0.611 mM and the IC50 [3] was 2.37 mM. It also gave an IC50 [4] of 0.799 mM.

— US20110098180A1, “Herbicide-Resistant Plants, And Polynucleotides And Methods For Providing Same” (United States Department of Agriculture, priority 2002, published 2011)
